Amino acid sequences for entries named in this document (tags omitted). A change or cut given only in a name is not applied to a line headed by its entry.
UniProt P35408: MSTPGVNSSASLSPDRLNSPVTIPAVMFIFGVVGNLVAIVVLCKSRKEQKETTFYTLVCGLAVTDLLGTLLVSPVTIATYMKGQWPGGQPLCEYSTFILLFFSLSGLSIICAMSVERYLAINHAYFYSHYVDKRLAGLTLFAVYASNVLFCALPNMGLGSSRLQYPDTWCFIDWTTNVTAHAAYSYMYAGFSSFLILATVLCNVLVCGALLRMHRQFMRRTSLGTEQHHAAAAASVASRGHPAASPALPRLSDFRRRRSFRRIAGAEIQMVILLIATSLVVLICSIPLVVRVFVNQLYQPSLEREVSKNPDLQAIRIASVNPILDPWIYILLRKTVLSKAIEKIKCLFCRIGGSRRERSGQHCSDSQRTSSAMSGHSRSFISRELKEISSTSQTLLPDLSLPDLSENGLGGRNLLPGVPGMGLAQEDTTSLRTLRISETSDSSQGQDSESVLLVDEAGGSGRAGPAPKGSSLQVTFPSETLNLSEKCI

According to patent US9708311B2, “Benzimidazole derivatives as EP4 antagonists” (BAYER PHARMA AKTIENGESELLSCHAFT, priority 2012, dated 2017):

Biological target: human EP4 receptor (Homo sapiens (Human), UniProt P35408)
Assay: Test for antagonism of the human EP4 receptor signal (cAMP HTRF)
Format: cell-based
Details: cells expressing hEP4, PGE2 at EC80 (0.4 nM), cAMP TR-FRET
Excerpt: The binding of the agonist prostaglandin E2 (PGE2) to the EP4 subtype of human hPGE2-R (hEP4-R) induces the activation of membrane-bound adenylate cyclases and thus the formation of cAMP. In the presence of the phosphodiesterase inhibitor IBMX, this cAMP accumulates intracellularly and is employed in a competitive detection procedure after cell lysis. In this procedure, it competes with a fluorescence-labelled cAMP (cAMP-d2) for binding to an Eu cryptate-labelled anti-cAMP antibody. In the absence of cellular cAMP, a complex is formed between the Eu cryptate-labelled anti-cAMP antibody and the cAMP-d2 molecule, which after excitation at 337 nm makes possible an energy transfer based on FRET (fluorescence resonance energy transfer) to the cAMP-d2 tracer and leads to a long-lasting fluorescence signal (emission at 665 and 620 nm). This signal is time-resolved, i.e. measured in a suitable measuring apparatus after decay of the background fluorescence (time resolved; TR-FRET). The wave ratio determination (emission 665 nm/emission 620 nm*10000) moreover makes it possible to standardize individual measurement differences in the added amounts of the detection reagents.
By means of prostaglandin E2 administration and increase in the intracellular cAMP, a lowering of the FRET signal occurs, which in the case of an antagonistic substance action increases again. […]

pIC50 | Structure (SMILES)
7.99 | CCn1c2ccc(-c3nc4cc(C(=O)O)ccc4n3CCOC)cc2c2ccc(F)cc21 [Example 10, 2-(9-Ethyl-7-fluoro-9H-carbazol-3-yl)-1-(2-methoxyethyl)-1H-benzimidazole-5-carboxylic acid]
7.19 | CCn1c2ccccc2c2cc(-c3nc4c(OC)c(C(=O)O)ccc4n3CC3CC3)ccc21 [Example 104, 1-(Cyclopropylmethyl)-2-(9-ethyl-9H-carbazol-3-yl)-4-methoxy-1H-benzimidazole-5-carboxylic acid]

pIC50: −log10 of the molar value.
